The values that follow come from ChEMBL document CHEMBL1137326, “Cyclic MrIA: a stable and potent cyclic conotoxin with a novel topological fold that targets the norepinephrine transporter” (J Med Chem, 2006).

Protein sequences, listed by entry. Tags and fused reporters are not part of them.
UniProt P23975, whole entry: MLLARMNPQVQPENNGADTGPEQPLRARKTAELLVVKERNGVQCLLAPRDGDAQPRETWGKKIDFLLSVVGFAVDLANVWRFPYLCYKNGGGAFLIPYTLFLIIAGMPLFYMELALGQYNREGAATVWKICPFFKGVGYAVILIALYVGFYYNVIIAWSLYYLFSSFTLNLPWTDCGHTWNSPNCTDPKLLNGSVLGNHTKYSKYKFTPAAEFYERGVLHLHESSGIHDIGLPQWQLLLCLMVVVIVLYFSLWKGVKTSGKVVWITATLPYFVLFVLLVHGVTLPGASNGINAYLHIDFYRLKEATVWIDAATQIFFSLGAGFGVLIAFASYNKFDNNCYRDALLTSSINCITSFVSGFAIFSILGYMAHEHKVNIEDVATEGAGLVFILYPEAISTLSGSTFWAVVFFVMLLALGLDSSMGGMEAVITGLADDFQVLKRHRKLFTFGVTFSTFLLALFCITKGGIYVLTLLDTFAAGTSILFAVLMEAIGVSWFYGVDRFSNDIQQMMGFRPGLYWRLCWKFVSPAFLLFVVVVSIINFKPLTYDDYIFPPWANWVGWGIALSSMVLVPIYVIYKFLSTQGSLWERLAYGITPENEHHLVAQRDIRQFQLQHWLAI

Data set [1] deals with Sodium-dependent noradrenaline transporter (Homo sapiens, UniProt P23975). Put plainly: Displacement of [3H]nisoxetine from human NET in COS7 cells. It counts as cell-based, COS-7. (In a radioligand displacement assay an active substance lowers the binding of a labelled ligand.)
A further data set has as its system trypsin. The experiment in a line: Stability against cleavage by trypsin after 24 hrs by enzymatic digestion assay. The format is ADME. The settings on record: human, read-out: Activity.

The structures appear in SMILES notation.

What is called EC50 is the concentration giving half of the maximal effect. A high value points to weaker potency. Consider `CC(C)C[C@@H]1NC(=O)[C@H](CCCCN)NC(=O)[C@H](Cc2ccc(O)cc2)NC(=O)CNC(=O)[C@@H]2CSSC[C@H](NC1=O)C(=O)N[C@@H](Cc1c[nH]cn1)C(=O)N1C[C@H](O)C[C@H]1C(=O)N[C@H]1CSSC[C@H](NC(=O)[C@H](C(C)C)NC(=O)CNC(=O)[C@H](CC(N)=O)NC(=O)CNC(=O)[C@H](C)NC1=O)C(=O)N2`, for which the midpoint of the response in data set [1], the EC50, lay at 1380 nM. Moreover, the remaining at 24 h in the data set on trypsin stood at 97%.
